Assay results: patent publication US20240317709A1, “Lysophosphatidic Acid Receptor Antagonists for Breast Cancer Treatment” (Lakehead University, priority 2023, published 2024)

The chains behind the UniProt entries cited, without tags or fusion partners. Where a name states a change or a piece, a line headed by the entry shows the natural chain unless it says otherwise.
UniProt Q92633: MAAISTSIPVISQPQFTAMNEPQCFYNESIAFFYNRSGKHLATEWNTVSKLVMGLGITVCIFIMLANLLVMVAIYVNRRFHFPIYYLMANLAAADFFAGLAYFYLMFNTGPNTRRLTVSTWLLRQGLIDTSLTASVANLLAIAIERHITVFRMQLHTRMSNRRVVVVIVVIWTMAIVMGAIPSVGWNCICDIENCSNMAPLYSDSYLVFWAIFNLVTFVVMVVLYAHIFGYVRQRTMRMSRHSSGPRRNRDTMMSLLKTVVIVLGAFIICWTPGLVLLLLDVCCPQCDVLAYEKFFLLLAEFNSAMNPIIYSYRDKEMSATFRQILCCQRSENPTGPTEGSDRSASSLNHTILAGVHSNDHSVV

Biological target: LPA1 (Homo sapiens, UniProt Q92633)
Test: in vitro cAMP assay using a CHO cell line overexpressing LPA1 receptor
Type: cell-based
Design: GFP; host or cells: CHO-K1, transiently transfected
Details: 1 μM LPA, 100 nM forskolin, test concentration not given

% inhibition: 96.4%
Compound: Cc1nnn(-c2ccc(-c3ccc(C4(C(=O)O)CC4)cc3)cc2)c1NC(=O)OC(C)c1ccccc1F (stereo not shown) [Compound 1g, 1-(4′-(5-(((1-(2-fluorophenyl)ethoxy)carbonyl)amino)-4-methyl-1H-1,2,3-triazol-1-yl)-[1,1′-biphenyl]-4-yl)cyclopropane-1-carboxylic acid]
